Target: COX-1 (Homo sapiens, UniProt P23219)
Experiment: Inhibition of host inflammation factor COX-1
Type: biochemical
Details: read-out: COX-1 % inhibition

Chains of the proteins cited; added tags and fusions are not shown. Residues count along the entry.
UniProt P23219, 24-599: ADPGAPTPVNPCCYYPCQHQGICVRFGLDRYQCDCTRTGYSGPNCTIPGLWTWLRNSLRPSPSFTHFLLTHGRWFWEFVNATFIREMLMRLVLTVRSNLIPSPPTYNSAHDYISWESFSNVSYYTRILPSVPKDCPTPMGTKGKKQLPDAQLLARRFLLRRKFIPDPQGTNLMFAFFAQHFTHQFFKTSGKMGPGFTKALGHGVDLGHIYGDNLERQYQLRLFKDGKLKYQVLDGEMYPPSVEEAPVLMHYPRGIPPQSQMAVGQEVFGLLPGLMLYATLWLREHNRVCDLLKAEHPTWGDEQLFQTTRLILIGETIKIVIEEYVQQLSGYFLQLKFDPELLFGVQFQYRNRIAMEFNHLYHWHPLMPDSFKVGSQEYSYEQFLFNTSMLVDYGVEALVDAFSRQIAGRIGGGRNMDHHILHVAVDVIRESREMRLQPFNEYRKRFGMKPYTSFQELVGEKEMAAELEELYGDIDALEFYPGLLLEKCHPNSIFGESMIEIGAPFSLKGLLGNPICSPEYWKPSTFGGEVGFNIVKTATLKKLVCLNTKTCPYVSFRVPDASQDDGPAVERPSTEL

Compound: Cc1ccc(C(C)C)cc1O [Carvacrol]
- inhibition at 200 µM: > 50%

Compound: C=CCc1ccc(O)c(OC)c1 [Eugenol]
- inhibition at 200 µM: > 25%

From patent US20080253976A1, “Personal Care Compositions Comprising An Antimicrobial Blend of Essential Oils or Constituents Thereof” (priority 2007, published 2008)
